Values quoted from earlier work, collected in patent US6410590B1, “Compounds having antitumor activity: process for their preparation and pharmaceutical compositions containing them” (Dr. Reddy's Research Foundation, priority 2000, dated 2002).

Test system: H9 cell
Details: cited from earlier work

Dehydroandrographolide Succinic acid monoester [DASM]
concentrations nontoxic to the H9 cell: 50 to 200 µg/mL
